# Experimental data as given in US8309545B2, “Benzofuran potassium channel blockers and uses thereof” (Bionomics Limited, priority 2006, dated 2012).
# Sequences of proteins named here, by UniProt entry; tags and fusion partners are left off.
# UniProt P22001, whole entry: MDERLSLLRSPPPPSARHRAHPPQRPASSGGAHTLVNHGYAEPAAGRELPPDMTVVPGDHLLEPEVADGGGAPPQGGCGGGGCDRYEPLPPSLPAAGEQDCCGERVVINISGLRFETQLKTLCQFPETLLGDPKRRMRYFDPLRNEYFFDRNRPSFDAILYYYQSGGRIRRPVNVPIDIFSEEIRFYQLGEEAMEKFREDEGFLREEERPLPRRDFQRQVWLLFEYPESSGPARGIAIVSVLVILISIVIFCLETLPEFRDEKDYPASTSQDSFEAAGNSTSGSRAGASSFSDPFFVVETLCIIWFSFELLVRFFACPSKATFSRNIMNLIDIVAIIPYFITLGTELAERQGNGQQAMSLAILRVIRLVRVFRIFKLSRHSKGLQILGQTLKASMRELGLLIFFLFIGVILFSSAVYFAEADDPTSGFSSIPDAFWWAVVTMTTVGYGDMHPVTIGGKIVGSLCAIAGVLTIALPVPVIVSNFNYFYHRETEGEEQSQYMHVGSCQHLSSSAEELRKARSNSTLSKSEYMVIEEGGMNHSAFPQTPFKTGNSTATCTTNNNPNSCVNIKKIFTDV
# Molecular target: human Kv1.3 ion channel (Homo sapiens, UniProt P22001)
# Test: Inhibition of Kv1.3 currents, planar patch clamp in Jurkat cells
# Conditions: read-out: EC50 Kv1.3, Human Jurkat cells (endogenous hKv1.3), averaged dose response data from 3 or more cells
# Protocol: Potency of compounds to inhibit the human Kv1.3 ion channel were determined as follows:
# EC50 values for inhibition of Kv1.3 currents were determined by the method according to Schmitz et al (2005) Molecular Pharmacology 68, 1254-1270 with the following differences: • 1. Human Jurkat cells (which endogenously express hKv1.3) were used in place of rat L929 cells. • 2. All electrophysiology was performed using planar patch clamp (Port-A-Patch, Nanion Technologies Gmbh, Munich) in contrast to conventional patch clamp. • 3. EC50 values shown were determined from averaged dose response data obtained from 3 or more cells.
row,SMILES,EC50 [nM]
1,CC(=O)c1c(O)c(OCCCc2ccccc2)c2occc2c1C,300
2,CC(=O)c1c(OCCCN2CCOCC2)c(OCCCc2ccccc2)c2occc2c1C,430
3,CC(=O)c1c(C)c2c(c(OCCC(C)c3ccc(F)cc3)c1OCCc1ccccn1)OCC2 (stereo not drawn),14
